Source: patent US11873288B2, “Inhibitors for soluble epoxide hydrolase (sEH) and fatty acid amide hydrolase (FAAH)” (The Regents of the University of California, priority 2016, dated 2024)

The chains behind the UniProt entries cited, without tags or fusion partners.
UniProt P34913, whole entry: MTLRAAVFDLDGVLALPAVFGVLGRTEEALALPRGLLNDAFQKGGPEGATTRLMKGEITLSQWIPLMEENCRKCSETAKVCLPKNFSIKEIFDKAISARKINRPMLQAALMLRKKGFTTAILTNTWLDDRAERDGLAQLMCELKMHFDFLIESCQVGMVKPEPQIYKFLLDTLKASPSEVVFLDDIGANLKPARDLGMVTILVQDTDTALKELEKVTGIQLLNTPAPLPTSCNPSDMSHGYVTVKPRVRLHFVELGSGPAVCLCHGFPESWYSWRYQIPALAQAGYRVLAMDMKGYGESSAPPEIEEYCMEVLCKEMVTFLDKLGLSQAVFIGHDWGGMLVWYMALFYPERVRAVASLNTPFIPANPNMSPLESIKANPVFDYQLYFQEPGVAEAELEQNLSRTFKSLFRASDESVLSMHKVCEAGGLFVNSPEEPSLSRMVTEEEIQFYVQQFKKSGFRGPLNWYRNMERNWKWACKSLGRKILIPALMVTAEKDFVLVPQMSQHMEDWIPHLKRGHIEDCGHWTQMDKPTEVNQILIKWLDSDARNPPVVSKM

Molecular target: hsEH (Homo sapiens, UniProt P34913)
Experiment: human sEH inhibition (hsEH IC50)
Type: biochemical

## CNC(=O)c1ccc(O[C@H]2CC[C@H](NC(=O)Nc3ccc(OC(F)(F)F)cc3)CC2)cc1 [Compound A-18]
  IC50: 2 nM
